# Experimental data: patent US8562947B2, “Oxidized avidin with high residency time in the treated tissues” (Sigma-Tau Industrie Farmaceutiche Riunite S.p.A., priority 2007, dated 2013)
# Conditions: mouse, in vivo
substance,measurement,value
"WTavidin: wild type avidin, glycoprotein of about 68 kDa present in egg white, high affinity for biotin [reference compound]",residence in the brain,less than 2.08±1.03 % ID/100 mg of tissue
